Cneo AK release – Cryptococcus neoformans cell lysis inducers, primary screen, AK release luminescence, single concentration. C. neoformans lysis, adenylate kinase release luminescence, 4 h; normalised: neutral wells 0, clomiphene wells 100. lysis activity, % at 15 µM. hit rate 0.2% among 360,000. AID 651654, 2012;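 active means mean lysis activity across replicates of at least 80%, whatever share of replicates individually reach that level; inactive means mean lysis activity below 80%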
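Material – log-phase Cryptococcus neoformans yeast cells · Input – 5 × 10^6 yeast cells/mL · Medium – fresh YPD growth medium · Doses – single compound concentration per well · Timing – static 4 h at 37 °C with compound, 1 h detection · Detection – adenylate kinase release luminescence · Read-out – signal increase indicating cell lysis · Control set – Clomiphene as positive lysis control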
Statin myotox sup – suppressors of statin myotoxicity in C2C12 myotubes, primary screen, cell-based, single point, plate reader; C2C12 myotubes + simvastatin, ATP luminescence, 48 h; scaled: DMSO 0, geranylgeraniol control 100; rescue of ATP level, % at 7.49 µM; hit rate 0.78% among 330,000; AID 602340, 2012;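 active means mean ATP rescue above about 67%, or every replicate alone reaching that limit, limit read from the data, passing the limit was not always enough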;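 further: myotubes were challenged with 10 µM simvastatin during compound exposure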
N-glyco inh – increase of ERlucT glycosylation luciferase signal, primary screen, N-linked glycosylation inhibitor project, D54 ERlucT cells, luminescence, set 2. D54 ERlucT glycosylation luciferase reporter, 24 h; percent of 100 nM tunicamycin response. reporter increase, % at 12.5 µM. hit rate 0.23% among 360,000. AID 588692, 2011;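 active means mean luciferase reporter signal, scaled so untreated is 0 and the glycosylation-blocking control 100, at or above a set limit in every replicate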;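 further: luciferase carries N-glycosylation sites so blocking glycosylation raises the light; 0% = median of neutral control wells and 100% = median of 100 nM tunicamycin wells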
UUG fidelity – modulators of yeast start codon fidelity, primary screen, whole organism, S. cerevisiae, single point, plate reader | AID 602363, 2012 | S. cerevisiae UUG-firefly luciferase reporter, luminescence/redox ratio | activity score, % at 18.7 µM | hit rate 0.13% among 350,000;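 active = replicate mean at a twofold rise or more, about +100% in these data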;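 also: firefly luciferase made from a UUG start codon reports start codon fidelity; reporter light over untreated wells divided by growth signal over untreated wells; some hits fall short of that in this replicate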
miR122 inh – miR-122 Renilla sensor signal increase in Huh7, primary screen, miR-122 inhibitor project, cell-based, single point, plate reader | AID 602342, 2012 | activation (reporter increase), % at 12.5 µM | Huh7 miR-122 Renilla luciferase sensor, 48 h; neutral wells = 0, positive control = 100 | hit rate 0.3% among 340,000;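 active means mean replicate activation score at least 90 and every replicate individually at or above 90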;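 further: higher luciferase means less miR-122 activity so hits act as miR-122 inhibitors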
* = called active by the depositor; nt = no result given; [ ] = dose if it differs, or a comment. Most compounds without a hit are left out; they make up all but 1.2% or so of the library.

Values run as follows: Cneo AK release, Statin myotox sup, N-glyco inh, UUG fidelity, miR122 inh
#1 C[C@@H]1CN([C@H](C)CO)C(=O)c2cccc(NC(=O)C3CCOCC3)c2O[C@@H]1CN(C)Cc1ccc(C(=O)Nc2ccccc2N)cc1
 : 2, 110*, nt, 1, 14[16.7 µM]
#2 C[C@@H]1CN([C@@H](C)CO)C(=O)c2cccc(NC(=O)C3CCCCC3)c2O[C@@H]1CN(C)Cc1ccc(C(=O)Nc2ccccc2N)cc1
 : -8, -52, nt, -6, 185*[16.7 µM]
#3 COCC#Cc1cnc2c(c1)C(=O)N([C@@H](C)CO)C[C@@H](C)[C@H](CN(C)C(C)=O)O2
 : -3, 19, nt, 1, -1[16.7 µM]
#4 C[C@H]1CN([C@@H](C)CO)C(=O)c2cc(NC(=O)Cc3cn(C)c4ccccc34)ccc2O[C@@H]1CN(C)C(=O)Nc1ccc2c(c1)OCO2
 : -4, 36, nt, -4, -23[16.7 µM]
#5 Cn1nnc(NC(=O)CSc2ccc(Cl)cc2)n1
 : 1, 98*, 2, -31, -3
#6 Cn1nnc(NC(=O)CSc2nnnn2-c2ccc(F)cc2)n1
 : 0, -18, 1, -9, 0
#7 O=C(CSc1nnc(-c2ccccc2)c(-c2ccccc2)n1)N1CCOCC1
 : -2, -3, -2, 7, nt
#8 O=C(CSc1nc(-c2ccccc2)c(-c2ccccc2)o1)N1CCOCC1
 : 4, -9, -3, 111*, -2
#9 O=C(CSc1nc(-c2ccccc2)c(-c2ccccc2)o1)Nc1nncs1
 : 1, 102*, 5, -8, 1
#10 NS(=O)(=O)c1cccc(Nc2nc3ccccc3nc2NS(=O)(=O)c2ccc(Cl)cc2)c1
 : 0, 10, 1, 5, 68
#11 O=C(Nc1ccccc1F)c1ccc(CSc2ccccc2)o1
 : nt, nt, -3, nt, nt
#12 Cc1ccc(NC(=O)Cc2c(C(=O)O)n(C)c3ccccc23)cc1F
 : nt, nt, -1, nt, -6
#13 Cc1ccc(NC(=O)Cc2cn(C)c3ccccc23)cc1F
 : -4, 11, -1, 2, 321*
#14 CC1(Cc2cccc(F)c2)C(=O)Nc2ccc(S(=O)(=O)NC3CCCCC3)cc21 (stereo not drawn)
 : 1, 164*, -3, 18, 56
#15 CC(=O)c1c(C(C)=O)c(C)n(Cc2ccc(Cl)cc2)c1C
 : -1, 144*, 0, -2, -17
#16 C[C@@H]1CN([C@@H](C)CO)C(=O)c2cc(NS(C)(=O)=O)ccc2O[C@@H](C)CCCCO[C@H]1CN(C)S(=O)(=O)c1cccs1
 : 1, -16, nt, 2, 5[16.7 µM]
#17 c1cc(-c2noc(CC3CCCCC3)n2)ccn1
 : 0, 147*, -2, -10, -16
#18 Cc1ccc(-n2c(-c3ccc(Br)cc3)c[n+]3c2CCc2ccc4cccnc4c2-3)cc1
 : -2, -78, 40*, -11, -7
#19 O=C(Nc1sc2c(c1C(=O)O)CCC2)c1cccs1
 : nt, -7, -2, nt, 202*
#20 NC(=O)c1c(NC(=O)c2cccs2)sc2c1CCCCCC2
 : -2, -40, 0, -15, -7

Additional records:
Assay codes – A = Cneo AK release; B = Statin myotox sup; C = N-glyco inh; D = UUG fidelity; E = miR122 inh
21) Cc1cc(C)c2c(CN3CCN(Cc4ccc5c(c4)OCO5)CC3)cc(=O)oc2c1C
  A = 3; B = 17; C = 0; D = 10; E = -1
22) Cc1cc(C)c2c(CN3CCN(Cc4ccc5c(c4)OCO5)CC3)cc(=O)oc2c1
  A = -2; B = 150*; C = 2; D = -6; E = 1
23) Cc1cc(C(=O)N2CCN(Cc3ccc4c(c3)OCO4)CC2)cs1
  A = -5; B = 92*; C = -6; D = -6; E = 0
24) C[C@H](CO)N1C[C@H](C)[C@@H](CN(C)CC2CC2)OCCCC[C@H](C)Oc2ccc(NC(=O)CCC(F)(F)F)cc2C1=O
  A = 14; B = nt; C = nt; D = nt; E = -2[16.7 µM]
25) CSc1nc(Sc2ccc(Cl)cc2)c2ccccc2n1
  A = -2; B = 146*; C = 5; D = -2; E = -1
26) CCCNC(=O)NC[C@H]1[C@H](c2ccc(C3=CCCCC3)cc2)[C@@H](CO)N1C(C)=O
  A = 6; B = 9; C = nt; D = -4; E = 21[16.7 µM]
27) COc1cc(NS(=O)(=O)c2ccc(NC(=S)NC(=O)c3cccs3)cc2)nc(OC)n1
  A = nt; B = nt; C = 0; D = nt; E = nt
28) Cc1cc(C)cc(NS(=O)(=O)c2ccc(NC(=S)NC(=O)c3cccs3)cc2)c1
  A = 3; B = nt; C = 0; D = -6; E = 133*
29) COc1ccc(C2(NC(C)=O)CCN(C(=O)c3cccs3)CC2)cc1
  A = 2; B = 99*; C = 1; D = -12; E = -6

Record cards, from the list above. Order of screens: Cneo AK release | Statin myotox sup | N-glyco inh | UUG fidelity | miR122 inh
Entry for `COc1cc(NS(=O)(=O)c2ccc(NC(=S)NC(=O)c3cccs3)cc2)nc(OC)n1` : nt | nt | 0 | nt | nt
Entry for `Cc1cc(C)c2c(CN3CCN(Cc4ccc5c(c4)OCO5)CC3)cc(=O)oc2c1` : -2 | 150* | 2 | -6 | 1
Entry for `Cc1cc(C)cc(NS(=O)(=O)c2ccc(NC(=S)NC(=O)c3cccs3)cc2)c1` : 3 | nt | 0 | -6 | 133*

From PubChem BioAssay
